Tests used:
[1] = target: Isoform PNNOS of Nitric oxide synthase, brain (PNNOS) -973,I269V,M336V,D597N] (Rattus norvegicus, UniProt P29476, D597N/I269V/M336V); experiment: Hemoglobin Capture Assay; details: pH 7.4; 37 °C
[2] = target: Nitric oxide synthase, brain [D597N] (Rattus norvegicus, UniProt P29476, D597N); experiment: Hemoglobin Capture Assay; details: pH 7.4; 37 °C

Amino acid sequences for entries named in this document (tags omitted).
UniProt P29476, whole entry I269V/M336V/D597N: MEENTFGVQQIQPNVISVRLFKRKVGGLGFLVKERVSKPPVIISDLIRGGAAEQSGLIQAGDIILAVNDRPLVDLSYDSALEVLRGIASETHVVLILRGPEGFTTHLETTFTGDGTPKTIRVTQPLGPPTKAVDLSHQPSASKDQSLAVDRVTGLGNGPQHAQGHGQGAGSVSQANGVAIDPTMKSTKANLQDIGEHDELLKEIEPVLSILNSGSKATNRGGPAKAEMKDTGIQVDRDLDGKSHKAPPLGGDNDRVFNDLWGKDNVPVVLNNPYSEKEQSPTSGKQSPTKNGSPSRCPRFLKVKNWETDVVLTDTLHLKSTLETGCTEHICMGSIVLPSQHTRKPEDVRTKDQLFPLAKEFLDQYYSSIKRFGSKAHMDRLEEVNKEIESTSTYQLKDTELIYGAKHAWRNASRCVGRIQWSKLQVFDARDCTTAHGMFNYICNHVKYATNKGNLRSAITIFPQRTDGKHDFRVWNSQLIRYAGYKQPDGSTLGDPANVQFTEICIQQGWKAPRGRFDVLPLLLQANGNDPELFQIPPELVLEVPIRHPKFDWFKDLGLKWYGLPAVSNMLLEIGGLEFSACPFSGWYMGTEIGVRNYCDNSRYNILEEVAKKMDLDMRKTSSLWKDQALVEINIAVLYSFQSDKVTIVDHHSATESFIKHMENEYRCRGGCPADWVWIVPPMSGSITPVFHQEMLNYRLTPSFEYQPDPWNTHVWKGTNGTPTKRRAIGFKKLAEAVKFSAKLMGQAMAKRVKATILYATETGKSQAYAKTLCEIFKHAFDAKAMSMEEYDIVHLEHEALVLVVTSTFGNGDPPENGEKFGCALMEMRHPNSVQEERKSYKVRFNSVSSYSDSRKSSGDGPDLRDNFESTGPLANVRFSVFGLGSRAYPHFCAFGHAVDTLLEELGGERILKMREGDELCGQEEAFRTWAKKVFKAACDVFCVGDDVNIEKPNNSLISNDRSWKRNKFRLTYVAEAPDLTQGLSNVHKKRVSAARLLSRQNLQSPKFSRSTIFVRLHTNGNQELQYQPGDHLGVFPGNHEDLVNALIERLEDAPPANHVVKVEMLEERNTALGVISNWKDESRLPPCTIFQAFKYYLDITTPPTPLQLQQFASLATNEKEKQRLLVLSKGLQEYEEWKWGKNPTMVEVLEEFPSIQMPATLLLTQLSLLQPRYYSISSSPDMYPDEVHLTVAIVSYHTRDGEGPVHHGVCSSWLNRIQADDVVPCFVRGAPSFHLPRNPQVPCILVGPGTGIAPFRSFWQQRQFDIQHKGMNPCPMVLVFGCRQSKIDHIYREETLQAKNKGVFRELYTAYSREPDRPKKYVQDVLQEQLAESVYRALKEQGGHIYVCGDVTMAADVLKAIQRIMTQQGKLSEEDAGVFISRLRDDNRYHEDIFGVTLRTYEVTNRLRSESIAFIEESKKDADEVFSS
UniProt P29476, whole entry D597N: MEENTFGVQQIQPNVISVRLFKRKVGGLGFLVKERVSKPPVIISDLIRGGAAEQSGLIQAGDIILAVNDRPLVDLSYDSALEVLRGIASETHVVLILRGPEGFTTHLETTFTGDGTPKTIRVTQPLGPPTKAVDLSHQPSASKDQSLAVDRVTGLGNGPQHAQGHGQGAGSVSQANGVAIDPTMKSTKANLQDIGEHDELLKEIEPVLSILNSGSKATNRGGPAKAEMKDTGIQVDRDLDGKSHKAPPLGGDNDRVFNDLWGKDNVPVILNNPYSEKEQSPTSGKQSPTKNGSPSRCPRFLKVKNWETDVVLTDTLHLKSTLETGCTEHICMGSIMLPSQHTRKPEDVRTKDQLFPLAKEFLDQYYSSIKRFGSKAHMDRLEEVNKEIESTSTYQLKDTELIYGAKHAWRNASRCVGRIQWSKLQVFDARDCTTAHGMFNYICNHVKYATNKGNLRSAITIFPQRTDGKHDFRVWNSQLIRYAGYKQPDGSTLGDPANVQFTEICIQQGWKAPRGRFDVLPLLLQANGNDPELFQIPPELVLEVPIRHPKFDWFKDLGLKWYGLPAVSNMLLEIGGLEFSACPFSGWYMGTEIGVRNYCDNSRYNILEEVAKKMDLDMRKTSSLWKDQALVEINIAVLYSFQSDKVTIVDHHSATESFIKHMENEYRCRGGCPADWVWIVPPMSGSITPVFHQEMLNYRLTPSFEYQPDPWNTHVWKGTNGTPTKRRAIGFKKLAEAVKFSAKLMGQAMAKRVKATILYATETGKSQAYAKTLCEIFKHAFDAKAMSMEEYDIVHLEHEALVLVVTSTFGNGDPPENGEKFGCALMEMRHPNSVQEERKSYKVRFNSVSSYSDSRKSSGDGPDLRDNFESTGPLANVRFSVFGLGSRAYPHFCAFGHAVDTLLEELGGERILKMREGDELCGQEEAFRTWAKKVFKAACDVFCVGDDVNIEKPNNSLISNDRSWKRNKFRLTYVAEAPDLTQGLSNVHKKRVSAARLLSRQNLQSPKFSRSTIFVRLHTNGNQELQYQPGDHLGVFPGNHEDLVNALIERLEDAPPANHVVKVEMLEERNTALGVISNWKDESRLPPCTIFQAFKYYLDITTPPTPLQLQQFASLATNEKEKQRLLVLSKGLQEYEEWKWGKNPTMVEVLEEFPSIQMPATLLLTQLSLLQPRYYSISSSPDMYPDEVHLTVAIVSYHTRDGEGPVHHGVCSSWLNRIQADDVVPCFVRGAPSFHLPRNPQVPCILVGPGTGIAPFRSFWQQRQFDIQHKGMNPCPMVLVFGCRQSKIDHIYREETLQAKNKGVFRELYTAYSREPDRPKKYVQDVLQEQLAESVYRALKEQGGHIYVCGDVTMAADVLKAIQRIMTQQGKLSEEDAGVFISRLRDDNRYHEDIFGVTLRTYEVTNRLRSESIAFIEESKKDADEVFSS

| Ki [1] [nM] | Ki [2] [nM] | SMILES |
| --- | --- | --- |
| 116 | 139 | CNCCN(C)c1cncc(CCc2cc(C)cc(N)n2)c1 [4-methyl-6-[2-(5-{methyl[2-(methylamino)ethyl]amino}pyridin-3-yl)ethyl]pyridin-2-amine (14)] |
| 108 | 97.5 | Cc1cc(N)nc(CCc2cncc(CCCN(C)C)c2)c1 [nNOS inhibitor, 6] |
